Measured values reported in ChEMBL document CHEMBL1132600, “Substrate specificity and stereoselectivity of rat brain microsomal anandamide amidohydrolase” (J Med Chem, 1999).

By UniProt entry, the sequences of proteins in these tests, tags left out.
UniProt P97612, whole entry: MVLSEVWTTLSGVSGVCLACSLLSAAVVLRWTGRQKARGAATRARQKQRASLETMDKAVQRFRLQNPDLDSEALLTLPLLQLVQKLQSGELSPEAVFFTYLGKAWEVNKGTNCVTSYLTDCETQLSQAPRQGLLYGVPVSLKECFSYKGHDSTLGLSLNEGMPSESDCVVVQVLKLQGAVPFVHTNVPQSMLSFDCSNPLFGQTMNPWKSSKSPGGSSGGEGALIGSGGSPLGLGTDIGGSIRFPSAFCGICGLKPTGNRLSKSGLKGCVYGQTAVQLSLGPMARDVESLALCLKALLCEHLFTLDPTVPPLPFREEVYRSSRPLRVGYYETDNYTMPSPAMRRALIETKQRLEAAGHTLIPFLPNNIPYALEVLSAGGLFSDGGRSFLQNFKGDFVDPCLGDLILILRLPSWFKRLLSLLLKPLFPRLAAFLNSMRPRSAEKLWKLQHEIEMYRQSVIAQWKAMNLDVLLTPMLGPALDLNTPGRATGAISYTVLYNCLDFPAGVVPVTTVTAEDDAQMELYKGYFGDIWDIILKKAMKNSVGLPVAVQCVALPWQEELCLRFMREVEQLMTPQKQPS

Target: Fatty-acid amide hydrolase 1 (Rattus norvegicus) (UniProt P97612)
Assay: Tested for hydrolysis by rat brain microsomal anandamide amidohydrolase (AAH).
Method in brief: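 Substrate at 100 μM (final) with 150 μg rat brain microsomal protein in 50 mM Tris·HCl, 1 mM EDTA, 0.1% BSA, pH 7.4, 37 °C, 15 min with shaking. Stopped with acetonitrile. Products quantified by RP-HPLC: arachidonic acid at 204 nm, or ethanolamine-type amine by OPA precolumn derivatization at 230 nm. Substrate-free blank subtracted. Four experiments in duplicate.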

Compound | Relative rate of hydrolysis
CCCCC/C=C\C/C=C\C/C=C\C/C=C\CCCC(=O)N[C@H](C)CO | 2.4%
CCCCC/C=C\C/C=C\C/C=C\C/C=C\CCCC(=O)N[C@@H](C)CO | 23%
CCCCC/C=C\C/C=C\CCCCCCCC(=O)NCCO | 75%
CCCCC/C=C\C/C=C\C/C=C\C/C=C\CCCC(=O)N(CCO)CCO | 0%
